For one compound, IC50 results are on record in patent publication US20220079924A1, “GLUCOCORTICOID RECEPTOR MODULATORS” (ORIC Pharmaceuticals, Inc., priority 2018, published 2022).

Chains of the proteins cited; added tags and fusions are not shown.
UniProt P04150, whole entry: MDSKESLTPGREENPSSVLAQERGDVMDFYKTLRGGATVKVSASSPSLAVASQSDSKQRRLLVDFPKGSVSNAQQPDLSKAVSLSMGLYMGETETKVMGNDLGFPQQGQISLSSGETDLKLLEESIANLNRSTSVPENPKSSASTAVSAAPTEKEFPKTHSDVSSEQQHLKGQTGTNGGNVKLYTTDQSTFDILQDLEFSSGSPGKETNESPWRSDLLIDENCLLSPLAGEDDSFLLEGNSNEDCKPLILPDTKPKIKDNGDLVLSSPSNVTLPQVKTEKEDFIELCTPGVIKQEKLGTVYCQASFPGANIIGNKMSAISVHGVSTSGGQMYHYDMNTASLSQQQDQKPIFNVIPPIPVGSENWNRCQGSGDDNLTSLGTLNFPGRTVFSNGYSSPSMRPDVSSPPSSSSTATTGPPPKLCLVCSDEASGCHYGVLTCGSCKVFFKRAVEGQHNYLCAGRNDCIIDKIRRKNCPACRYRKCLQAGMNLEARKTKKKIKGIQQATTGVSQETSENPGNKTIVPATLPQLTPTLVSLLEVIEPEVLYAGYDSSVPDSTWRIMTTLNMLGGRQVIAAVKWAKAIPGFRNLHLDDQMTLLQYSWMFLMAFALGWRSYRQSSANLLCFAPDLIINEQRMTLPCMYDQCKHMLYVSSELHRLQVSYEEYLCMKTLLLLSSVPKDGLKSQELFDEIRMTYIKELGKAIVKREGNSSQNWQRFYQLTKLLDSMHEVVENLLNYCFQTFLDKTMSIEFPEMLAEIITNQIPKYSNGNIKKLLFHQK

The target of the test is GR (Homo sapiens, UniProt P04150). The experiment in a line: In Vitro GR Luciferase Reporter Assay (antagonist assay). The following applies: read-out: GR IC50, CHO-K1-GR-MMTV-Luc reporter cells, 10 nM Dexamethasone, 18-24 hours. On the procedure:
Example A: In Vitro GR Luciferase Reporter Assay
Cell Line: CHO-K1-GR-MMTV-Luc reporter cells
Culture Media: DMEM (with phenol red)+10% FBS
Assay Media: DMEM (without phenol red)+10% CSS
Culture CHO-K1-GR-MMTV-Luc reporter cells in T175 flasks in Culture Media at conditions less than 90% confluence.
Using Bravo (Agilent) liquid handler:
200× DMSO 1:3 serial dilutions of control and test compounds in 96-well non-sterile V bottom plate in DMSO, 12 points for each compound were prepared.
Prepared 5× compound serial dilutions: Add 97.5 μL/well of Assay Media into 96-well non-sterile V bottom plate then added 2.5 ul of 200× concentration of compounds and mix well.
Seeded cells for Antagonist Assay: 5200 CHO-K1-GR-MMTV-Luc reporter cells were seeded in Greiner #781080 flat clear bottom 384-well white TC plate in 20 ul of Assay Media containing 12.5 nM Dexamethasone (final concentration=10 nM). […]
Read plates: Equilibrate appropriate amount of Promega OneGlo luciferase reagent to room temperature. Remove the plates from incubator and add 25 uL of OneGlo reagent/well by Bravo and read the plates on Tecan Spark plate reader within 15 minutes.
The ability of the compounds disclosed herein to inhibit GR activity was quantified and the respective IC50 value was determined. […]
On the technique in general: A reporter such as luciferase makes a cellular process visible.

Usually IC50 stands for the concentration at which inhibition is half-maximal.

SMILES strings stand for the structures.

As to `Cn1cnc(S(=O)(=O)N(C2CC2)[C@H]2CCC3=Cc4c(cnn4C4CCOCC4)C[C@]3(C(=O)c3cc(C(F)(F)F)ccn3)C2)n1`, the IC50 lay within 0.1 to 1 µM.
